According to BindingDB's records for patent US9540388 (Janssen Pharmaceutica NV, 2017):
pIC50, pKi: −log10 of the molar value.

Amino acid sequences for entries named in this document (tags omitted). A change or cut given only in a name is not applied to a line headed by its entry.
UniProt Q99572: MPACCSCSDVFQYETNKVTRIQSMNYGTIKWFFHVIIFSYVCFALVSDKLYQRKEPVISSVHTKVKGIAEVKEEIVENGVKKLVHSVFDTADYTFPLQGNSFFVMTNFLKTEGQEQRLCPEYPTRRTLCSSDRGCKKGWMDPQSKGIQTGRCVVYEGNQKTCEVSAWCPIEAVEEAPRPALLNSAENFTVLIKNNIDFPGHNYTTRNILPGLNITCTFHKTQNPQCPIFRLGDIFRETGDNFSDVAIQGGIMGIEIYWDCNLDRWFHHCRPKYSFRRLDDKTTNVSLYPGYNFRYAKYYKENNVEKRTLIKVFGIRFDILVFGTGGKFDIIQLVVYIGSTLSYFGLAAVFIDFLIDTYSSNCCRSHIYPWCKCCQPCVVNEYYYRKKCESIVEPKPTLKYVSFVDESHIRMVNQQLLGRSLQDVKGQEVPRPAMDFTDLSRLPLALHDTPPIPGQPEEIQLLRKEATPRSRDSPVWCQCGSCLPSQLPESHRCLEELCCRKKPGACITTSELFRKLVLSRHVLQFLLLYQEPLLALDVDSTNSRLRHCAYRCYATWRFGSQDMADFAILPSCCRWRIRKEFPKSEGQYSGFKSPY

How the values were obtained:
[1] = target: P2X purinoceptor 7 (Homo sapiens, UniProt Q99572); assay: Radioligand Binding Assay
Method: (§1) human or rat P2X7-1321N1 cells were collected and frozen @−80° C. On the day of the experiment, cell membrane preparations were made according to standard published methods. The total assay volume was 100 μl:10 μl compound (10×)+(b) 40 μl tracer (2.5×)+50 μl membrane (2×). The tracer used for the assay was tritiated A-804598. The compound can be prepared as described in the literature. […] The assay was terminated by filtration (GF/B filters pre-soaked with 0.3% PEI) and washed with washing buffer (Tris-HCl 50 mM). The IC50 generated in the binding assay was corrected for tracer concentration and affinity of the tracer to derive at the affinity (Ki) of the test compounds.

[2] = target: T1, P2X purinoceptor 7 (Rattus norvegicus, UniProt Q64663); assay: Radioligand Binding Assay
T1 sequence (Q64663 whole entry): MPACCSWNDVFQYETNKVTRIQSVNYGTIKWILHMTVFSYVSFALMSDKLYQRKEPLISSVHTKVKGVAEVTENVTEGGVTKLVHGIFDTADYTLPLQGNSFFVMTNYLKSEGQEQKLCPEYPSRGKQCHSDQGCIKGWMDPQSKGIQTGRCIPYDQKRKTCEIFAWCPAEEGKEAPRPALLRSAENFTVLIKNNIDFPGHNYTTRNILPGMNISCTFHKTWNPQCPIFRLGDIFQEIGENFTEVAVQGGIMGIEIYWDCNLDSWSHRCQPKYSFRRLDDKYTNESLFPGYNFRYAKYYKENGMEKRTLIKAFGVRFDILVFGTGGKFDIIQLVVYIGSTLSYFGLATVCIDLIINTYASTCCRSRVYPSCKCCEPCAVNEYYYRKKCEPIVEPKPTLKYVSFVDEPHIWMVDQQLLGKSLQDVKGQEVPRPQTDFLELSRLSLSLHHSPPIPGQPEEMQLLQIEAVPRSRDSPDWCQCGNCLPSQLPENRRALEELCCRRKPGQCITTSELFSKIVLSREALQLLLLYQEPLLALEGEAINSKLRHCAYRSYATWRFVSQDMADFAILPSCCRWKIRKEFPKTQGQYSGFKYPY
Method: as §1

[3] = target: T1, P2X purinoceptor 7; assay: Ca2+ Flux Assay; conditions: pH 7.4
Method: 1321N1 cells expressing the recombinant human or rat P2X7 channel was cultured in HyQ DME/(HyClone/Dulbecco's Modified Eagle Medium) high glucose supplemented with 10% Fetal Bovine Serum (FBS) and appropriate selection marker. Cells were seeded at a density of 25000 cells/well (96-well clear bottom black walled plates) in 100 μl volume/well. On the day of the experiment, cell plates were washed with assay buffer, containing (in mM): 130 NaCl, 2 KCl, 1 CaCl2, 1 MgCl2, 10 HEPES, 5 glucose; pH 7.40 and 300 mOs. After the wash, cells were loaded with the Calcium-4 dye (Molecular Device) and incubated in the dark for 60 minutes. Test compounds were prepared at 250× the test concentration in neat DMSO. Intermediate 96-well compound plates were prepared by transferring 1.2 μL of the compound into 300 μL of assay buffer. A further 3× dilution occurred when transferring 50 μL/well of the compound plate to 100 μL/well in the cell plate. Cells were incubated with test compounds and dye for 30 minutes. Calcium dye fluorescence was monitored in FLIPR as the cells were challenged by adding 50 μL/well of BzATP (final concentration is 250 μM BzATP (human and rat)).

With O=C(c1cccc(C(F)(F)F)c1Cl)N1[C@@H]2CCC[C@H]1c1nnc(-c3ncccn3)n1C2 (single isomer, unassigned) [US9540388, 3] the pIC50 [1] was under 5.00 and the pIC50 [2] was under 5.00.

COc1ccnc(-c2nnc3n2C[C@H]2CCC[C@@H]3N2C(=O)c2cccc(C(F)(F)F)c2Cl)c1 (single isomer, unassigned) [US9540388, 27] showed a pKi [3] of 8.40.
